Assay results taken from ChEMBL document CHEMBL5500396, “Discovery, Multiparametric Optimization, and Solid-State Driven Identification of CHF-6550, a Novel Soft Dual Pharmacology Muscarinic Antagonist and β2 Agonist (MABA) for the Inhaled Treatment of Respiratory Diseases” (J Med Chem, 2024).
Calls of active or inactive are those of the source.

What was measured:
Details in all cases: albino Dunkin-Hartley, dose 0.3 nmol/kg, route it(Intratracheal), time 16.0 hrs
Cavia porcellus [1] = organism: Cavia porcellus
Cavia porcellus [2] = organism: Cavia porcellus; remark: listed apart in the source
Cavia porcellus [3] = organism: Cavia porcellus; remark: listed apart in the source

Measured: inhibition

CCN1CCC(COC(=O)[C@](O)(c2ccccc2)c2cccc(OCCCNC(=O)c3cc(OC)c(CNC[C@H](O)c4ccc(O)c5[nH]c(=O)ccc45)cc3F)c2)CC1.O=C(O)C(F)(F)F.O=C(O)C(F)(F)F
active: all assays above
